The target of this test is human phosphodiesterase-3A (Homo sapiens, UniProt Q14432). The experiment in a line: PDE3 assay (formation of 5'AMP from cAMP, SPA). Conditions: read-out: PDE3 IC50; human recombinant enzyme expressed in Sf9 cells. The protocol:
Evaluation of the effects of compounds on the activity of the human phosphodiesterase-3A is quantified by measuring the formation of 5′AMP from cAMP using a human recombinant enzyme expressed in a clonal isolate of Spodoptera frugiperda cells (Sf9) cells.
The test compound, reference compound or water (control) are added to a buffer containing 40 mM tris(hydroxymethyl)aminomethane (Tris)/HCl (pH 7.4) and 8 mM MgCl2, 450 nMcAMP and 0.25 μCi [3H]cAMP.
Thereafter, the reaction is initiated by addition of the enzyme (about 1 U) and the mixture is incubated for 20 min at 22° C.
For basal control measurements, the enzyme is omitted from the reaction mixture.
Following incubation SPA beads are added. After 30 min at 22° C. under shaking, the amount of [^3H]5′AMP is quantified with a scintillation counter (Topcount, Packard).
The results are expressed as a percent inhibition of the control enzyme activity. The standard inhibitory reference compound is milrinone (CAS number 78415-72-2), which is tested in each experiment at several concentrations to obtain an inhibition curve from which its IC50 value is calculated.

By UniProt entry, the sequences of proteins in these tests, tags left out.
UniProt Q14432, whole entry: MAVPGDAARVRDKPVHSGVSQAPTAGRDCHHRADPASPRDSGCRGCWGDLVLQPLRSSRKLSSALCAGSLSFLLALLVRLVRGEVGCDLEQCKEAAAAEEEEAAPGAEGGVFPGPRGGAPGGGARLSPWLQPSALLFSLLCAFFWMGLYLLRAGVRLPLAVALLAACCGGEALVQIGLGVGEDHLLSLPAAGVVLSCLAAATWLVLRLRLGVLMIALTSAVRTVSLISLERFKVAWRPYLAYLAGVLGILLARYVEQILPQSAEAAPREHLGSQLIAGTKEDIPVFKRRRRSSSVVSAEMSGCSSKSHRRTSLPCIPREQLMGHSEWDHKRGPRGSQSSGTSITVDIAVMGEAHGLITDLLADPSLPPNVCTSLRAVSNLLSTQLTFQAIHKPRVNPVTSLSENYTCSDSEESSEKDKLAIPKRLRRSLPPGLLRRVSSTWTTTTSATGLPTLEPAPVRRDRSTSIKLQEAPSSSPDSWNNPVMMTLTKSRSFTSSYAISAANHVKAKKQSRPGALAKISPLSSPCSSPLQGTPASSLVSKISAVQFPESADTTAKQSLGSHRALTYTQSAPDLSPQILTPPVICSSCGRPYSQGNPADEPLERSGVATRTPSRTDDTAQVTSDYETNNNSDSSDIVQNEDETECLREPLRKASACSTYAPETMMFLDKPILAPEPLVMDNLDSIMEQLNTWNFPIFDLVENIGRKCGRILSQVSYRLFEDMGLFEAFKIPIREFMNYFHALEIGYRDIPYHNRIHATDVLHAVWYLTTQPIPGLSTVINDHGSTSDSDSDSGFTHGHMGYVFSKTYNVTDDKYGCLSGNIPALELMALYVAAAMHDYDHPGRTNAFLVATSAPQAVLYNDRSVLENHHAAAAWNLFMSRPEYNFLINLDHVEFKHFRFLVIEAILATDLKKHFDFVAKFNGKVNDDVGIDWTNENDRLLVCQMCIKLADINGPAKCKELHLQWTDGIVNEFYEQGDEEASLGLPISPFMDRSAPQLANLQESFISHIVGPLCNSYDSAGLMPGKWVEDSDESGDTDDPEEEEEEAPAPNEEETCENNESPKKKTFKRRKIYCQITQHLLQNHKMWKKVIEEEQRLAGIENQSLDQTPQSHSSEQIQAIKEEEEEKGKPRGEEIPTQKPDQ

The IC50 is the point on the concentration scale where inhibition reaches its midpoint. `Cc1cc(Cc2nc3ccc(C(=O)O)cc3n2C[C@@H]2CCO2)c(F)cc1-c1cccc(OCc2ccc(C#N)cc2F)n1`: the IC50 amounted to 5 µM.

Source of the values: patent publication US20250115612A1, “CERTAIN 2,5-DIAZABICYCLO[4.2.0]OCTANES AND OCTAHYDROFURO[3,4-B]PYRAZINES AS GLP-1 RECEPTOR MODULATORS” (ASTRAZENECA AB, priority 2021, published 2025).
